# Laboratory results from patent US20080182834A1, “Multi-Nuclear Metal Complexes Partially Encapsulated by Cucurbit[7-12]Urils” (NEWSOUTH INNOVATIONS PTY LIMITED, priority 2004, published 2008).
# Tests used:
# [1] = tested on: 2008 ovarian carcinoma cell line; assay: In vivo activity against subcutaneous 2008 ovarian carcinoma tumours in nude mice; details: 2008 ovarian carcinoma s.c. in female balb/c nude mice; drug equivalence 1 (0.10 mg/kg free complex, 0.27 mg/kg adduct); doses on days 0, 4 and 8
# Excerpt: The cytotoxic activity of the association adduct of BBR3571 and unsubstituted cucurbit[7]uril at a drug equivalence of 1 (equimolar amount) was compared to the free metal complex. The experiment was limited to the MTD of the free metal complex. Female balb/c nude mice were inoculated subcutaneously on the flank with cells from the 2008 ovarian carcinoma cell line. Once the tumours had reached a volume of approximately 100 mm^3 the mice were randomized into groups and administered either a saline solution of BBR3571 at MTD or a saline solution of the association adduct of unsubstituted cucurbit[7]uril and BBR3571 in an equimolar amount (0.27 mg/kg of the association adduct). The controls were administered either as saline or a saline solution of unsubstituted cucurbit[7]uril. Doses were administered on days 0, 4 and 8.
# female balb/c nude mice = assay: Maximum tolerated dose (MTD) in vivo; details: intravenously in saline solution
# Experimental: Platinum complex BBR3571 and the association adduct of BBR3571 and unsubstituted cucurbit[7]uril were tested in vivo in female balb/c nude mice.
substance,measurement,setting,value
{trans-diamminechloro(μ-spermidine)platinum(II)}chloride [BBR3571],GDI (Growth Delay Index),[1],1.6
same,TGI (Tumour Growth Index),[1],48.5%
same,MTD,female balb/c nude mice,0.1 mg/kg
